Target: acetylcholinesterase (AChE) (Homo sapiens, UniProt P22303)
Experiment: Organo-phosphate inhibition of immobilized AChE in microchannel reactor (AChE/COX/HRP chain reaction, fluorescence read-out)

Chains of the proteins cited; added tags and fusions are not shown. Residues count along the entry.
UniProt P22303, 32-614 limits assumed: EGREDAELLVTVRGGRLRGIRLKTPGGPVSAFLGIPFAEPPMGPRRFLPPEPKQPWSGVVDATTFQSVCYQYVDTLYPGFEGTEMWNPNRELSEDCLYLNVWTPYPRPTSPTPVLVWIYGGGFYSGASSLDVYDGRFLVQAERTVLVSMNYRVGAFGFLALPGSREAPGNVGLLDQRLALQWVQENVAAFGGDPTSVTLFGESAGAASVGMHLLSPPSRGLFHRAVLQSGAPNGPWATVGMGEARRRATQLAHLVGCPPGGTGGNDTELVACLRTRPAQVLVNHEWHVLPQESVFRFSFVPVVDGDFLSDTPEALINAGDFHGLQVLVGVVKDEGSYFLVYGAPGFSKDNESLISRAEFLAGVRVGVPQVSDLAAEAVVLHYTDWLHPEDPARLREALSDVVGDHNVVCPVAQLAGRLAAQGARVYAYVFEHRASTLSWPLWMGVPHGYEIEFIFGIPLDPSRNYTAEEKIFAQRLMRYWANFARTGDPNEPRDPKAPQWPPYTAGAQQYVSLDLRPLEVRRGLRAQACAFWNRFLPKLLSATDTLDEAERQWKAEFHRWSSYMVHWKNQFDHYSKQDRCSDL

With CCCCOP(=O)(OCCCC)OCCCC the “fluorescent intensity as inhibitor solubilized flow passes into the microchannel reactor” value (TBP as inhibition substrate, hexane/water hybrid flow, reactant flow rate ~50 μL/min, excitation 550 nm, emission ~600 nm) was “fluorescent intensity is observed to decrease”, the “fluorescence signal (current) after injection of TBP collected from air” value (TBP collected from air into hexane, syringe injected after 400 sec stationary phase, FIG. 17) was “inhibition of AChE occurs” and the “fluorescence (photodetector current) after start of inhibition” value (~200 pM TBP, time 0 = starting point of inhibition, FIG. 16B) was “the fluorescence changes”.
